Measured values from ChEMBL document CHEMBL1157345, “Evaluation of indazole-based compounds as a new class of potent KDR/VEGFR-2 inhibitors” (Bioorg Med Chem Lett, 2008).

Key:
[1] = Selectivity for KDR to Aurora 1
[2] = Selectivity for KDR to Tie 2
[3] = Selectivity for KDR to aurora 2 kinase
[4] = Selectivity for KDR to p38alpha
[5] = Selectivity for KDR to PI3K
[6] = Selectivity for KDR to cMet
[7] = Selectivity for KDR to JAK3
[8] = Selectivity for KDR to JAK2

Measured: Ratio

COc1cc2nccc(Oc3ccc4c(NC(=O)c5cccc(C(F)(F)F)c5)nn(C)c4c3)c2cc1OC
45: all assays above
